Our source for the IC50 values is patent publication US12172975B2, “1H-indazole carboxamides as receptor-interacting protein kinase 1 inhibitors (RIPK1)” (BRISTOL-MYERS SQUIBB COMPANY, priority 2018, dated 2024).

The subject of the test is MLKL phosphorylation in HT29-L23 human colorectal adenocarcinoma cells. The test can be described thus: MLKL Phosphorylation High-Content Assay. In kind it is cell-based. Particulars: necroptosis induced with TNFα, SMAC mimetic and Z-VAD, 6 h, read-out: pMLKL (IC50). As for the experimental part:
MLKL Phosphorylation High-Content Assay
HT29-L23 human colorectal adenocarcinoma cells were maintained in RPMI 1640 medium containing 10% heat-inactivated FBS, 1% Penicillin-Streptomycin and 10 mM HEPES. Cells were seeded at 2,000 cells/well in 384 well tissue culture-treated microplates (Greiner #781090-3B) and incubated at 37° C. (5% CO2/95% O2) for 2 d. […] (5% CO2/95% O2). Necroptopsis was induced using a mixture of human TNFα (35 ng/mL) (Peprotech #300-01A), SMAC mimetic (from US 2015/0322111 A1) (700 nM) and Z-VAD ([…]) (BD pharmingen #51-6936). Following 6 h incubation at 37° C. (5% CO2/95% O2), the cells were fixed with 4% formaldehyde (ACROS 11969-0010) for 15 min at rt, then permeabilized with phosphate buffered saline (PBS) containing 0.2% Triton-X-100 for 10 min. MLKL phosphorylation was detected using anti-MLKL (phospho S358) antibody (Abeam #ab 187091) (1:1000 dilution in Blocking Buffer [PBS supplemented with 0.1% BSA]) with ON incubation at 4° C. After washing three times in PBS, goat anti-rabbit Alexa-488 (1:1000 dilution) (Life Technologies, A11008) and Hoechst 33342 (Life Technologies, H3570) (1:2000 dilution) in Blocking Buffer were added for 1 h at rt.
Following another three cycles of washes in PBS, the microplates were sealed, and cellular images were acquired in the Cellomics ArrayScan VTI high-content imager equipped with an X1 camera. Fluorescent images were taken using a 10× objective and the 386-23 BGRFRN_BGRFRN and 485-20 BGRFRN_BGRFRN filter sets, for nuclei and MLKL phosphorylation, respectively. The image sets were analyzed using the Compartmental Analysis Bioapplication software (Cellomics). The level of MLKL phosphorylation was quantified as MEAN_CircRingAvglntenRatio. The maximal inhibitory response was defined by the activity induced by Neels (CAS #: 852391-15-2, 6.25 μM). […] The data were fitted using the 4-parameter logistic equation to calculate the IC50 and Ymax values.

The structures appear in SMILES notation. Structures can show the parent of a compound that is named as a salt.

Usually IC50 stands for the midpoint of a concentration-inhibition curve. As for `CNC(=O)c1n[nH]c2cc(-c3cnc(OC)c(C(=O)N[C@H](C)c4cc(C(F)(F)F)ccc4F)c3)ccc12` [Example 215], the IC50 came to 16 nM. The figure for `CNC(=O)c1n[nH]c2cc(-c3cnc(OC)c(C(=O)N[C@H](C)c4cccc(OC(F)(F)F)c4)c3)ccc12` [Example 217, 6-[6-(deutero)methoxy-5-{[(1R)-1-[3-(trifluoromethoxy)phenyl](2,2,2-deutero)ethyl]carbamoyl}pyridin-3-yl]-N-(deutero)methyl-1H-indazole-3-carboxamide, TFA] is 13 nM. On to `CNC(=O)c1n[nH]c2cc(-c3cnc(OC)c(C(=O)N[C@@H](C)c4cccc(OC(F)(F)F)c4)c3)ccc12` [Example 221, 6-[6-(deutero)methoxy-5-{[(1S)-1-[3-(trifluoromethoxy)phenyl](2,2,2-deutero)ethyl]carbamoyl}pyridin-3-yl]-N-(deutero)methyl-1H-indazole-3-carboxamide], for which the 50% inhibitory concentration (IC50) amounted to 92 nM.

On to `CNC(=O)c1n[nH]c2cc(-c3cnc(OC)c(C(=O)N[C@@H](C)c4cc(C(F)(F)F)ccc4F)c3)ccc12` [Example 223, 6-(5-{[(1S)-1-[2-fluoro-5-(trifluoro-methyl)phenyl](2,2,2-deutero)ethyl]-carbamoyl}-6-(deutero)methoxy-pyridin-3-yl)-N-(deutero)methyl-1H-indazole-3-carboxamide], for which the IC50 was found to be 28 nM.
